Target: REGγ (UniProt P61289)
Assay: co-immunoprecipitation, western blot
Conditions: reference: wild type; sites S226,S227,S228,S230

- binding against the reference: lost
Substance: NIP30 (from UniProt Q9GZU8) S226–230A (4A)
